# Laboratory results reported in ChEMBL document CHEMBL1149357, “Propionylpiperazines as human melanocortin-4 receptor ligands” (Bioorg Med Chem Lett, 2006).
# Tests used:
# [1] = Ratio of drug level in brain against plasma in mouse at 5 mg/kg, iv after 4 hrs; assay type: ADME, organism-based; parameters: dose 5 mg/kg, route intravenous; conditions: read-out: BPR
# [2] = Ratio of drug level in brain against plasma in mouse at 5 mg/kg, iv after 1 hr; assay type: ADME, organism-based; parameters: dose 5 mg/kg, route intravenous; conditions: read-out: BPR
Compound,Kp at 4 h [1],Kp at 1 h [2]
Cc1ccc(N2CCN(C(=O)[C@H](C)Cc3ccc(Cl)cc3)CC2)c([C@@H](N)CC(C)C)c1,1.4,2.9
COc1cc(Cl)ccc1CC(C)C(=O)N1CCN(c2ccc(C(F)(F)F)cc2[C@@H](N)CC(C)C)CC1 (some centres undefined),1.9,2.3
